Results: US9751837B2, “Kinase inhibitors” (RESPIVERT LIMITED, priority 2014, dated 2017)

Tested on: non-mutant kinases
Assay: KinomeScan Selectivity Scores
Type: binding
Settings: 50 nM
From the text: These assays may be conducted by DiscoverX (formerly Ambit; San Diego, Calif.).

COc1cc(Nc2cc(Oc3ccc(NC(=O)Nc4cc(C(C)(C)C)cc(NS(C)(=O)=O)c4OC)c4ccccc34)ccn2)ccc1P(C)(=O)O [Example 44, (4-((4-((4-(3-(5-(tert-Butyl)-2-methoxy-3-(methylsulfonamido)phenyl)ureido)naphthalen-1-yl)oxy)pyridin-2-yl)amino)-2-methoxyphenyl)(methyl)phosphinic acid]
KinomeScan Selectivity Score S(1) ((non-mutant kinases with % Ctrl <1)/(non-mutant kinases tested)): 0.002
KinomeScan Selectivity Score S(10) ((non-mutant kinases with % Ctrl <10)/(non-mutant kinases tested)): 0.074
